This is one part of the list.
System: A. baumannii ATCC 17978
Assay: relative growth (fraction of control); higher = less inhibition
Conditions: 50 µM

Going from `[N-]=[N+]=NCc1ccccc1C[C@@]1(C(=O)N2CCCCC2)N=C(c2ccc(OCCCO)cc2)O[C@@H]1c1ccccc1` to `O=C1O[C@@H](c2ccccc2)[C@@H](c2ccccc2)N2[C@@H](c3ccc(OCCO)cc3)[C@]3(C(=O)Nc4ccc(C#CCCO)cc43)[C@@H](C(=O)N3CCCCCCC3)[C@H]12`, the relative growth falls from 1.14 to 0.941.

Compared with `COc1cc(C)nc(SCC(N)=O)n1`, `Cc1cc(=O)n2ncnc2n1CC(=O)NN` is higher in relative growth: 0.872 for the first, 0.995 for the second.

Compared with `CCS(=O)(=O)Nc1ccc2c(c1)C(=O)N(C)C[C@H](OC)[C@H](C)CN(Cc1nccs1)[C@@H](C)CO2`, `CO[C@H]1CN(C)C(=O)c2cc(NS(=O)(=O)c3cn(C)cn3)ccc2OC[C@@H](C)N(CCC(F)(F)F)C[C@H]1C` is lower in relative growth: 1.02 for the first, 0.981 for the second.

First: O=c1nc(NCCN2CCOCC2)cn[nH]1
Second: O=C(C[C@H]1C=C[C@@H](NC(=O)C2CCC2)[C@H](CO)O1)NCCCN1CCOCC1
The relative growth of the first is lower: 0.996 for the first, 1 for the second.

Compared with `COCC(=O)N(C)C[C@@H]1Oc2cc(C#Cc3ccccc3)ccc2S(=O)(=O)N([C@@H](C)CO)C[C@H]1C`, `COc1cccc(C#Cc2ccc3c(c2)O[C@H](CN(C)C(C)=O)[C@H](C)CN([C@H](C)CO)S3(=O)=O)c1` is lower in relative growth: 1.01 for the first, 0.937 for the second.

Compared with `CC(=O)O[C@H]1C[C@@H](OC(C)=O)C(C)(C)[C@@H]2C[C@@H](OC(C)=O)[C@@]3(C)C4=CC(=O)O[C@@H](c5ccoc5)[C@]4(C)CC[C@@H]3[C@@]12C`, `CO[C@H]1CN(C)C(=O)c2cc(NC(=O)C3CC3)ccc2OC[C@H](C)N(C(=O)C2CCOCC2)C[C@@H]1C` is higher in relative growth: 0.943 for the first, 1.02 for the second.

Compared with `Cc1ccc(S[C@]2(C(=O)NCCCN(C)C)CC(=O)N(Cc3cc(C(F)(F)F)cc(C(F)(F)F)c3)[C@@H]2c2ccc(CO)cc2)cc1`, `C[C@H](NC(=O)C[C@H]1C[C@@H]2c3cc(NC(=O)Nc4ccc(C(F)(F)F)cc4)ccc3O[C@@H]2[C@@H](CO)O1)c1ccccc1` is higher in relative growth: 0.978 for the first, 1.15 for the second.

Compared with `O=C(C[C@@H]1CC[C@H]2[C@@H](COC[C@@H](O)CN2S(=O)(=O)c2ccc(F)cc2)O1)NCc1ccc(Cl)c(Cl)c1`, `COc1ccc(S(=O)(=O)N2C[C@H](O)COC[C@H]3O[C@H](CC(=O)NCCN4CCCCC4)CC[C@@H]32)cc1` is higher in relative growth: 0.746 for the first, 1.11 for the second.

Going from `CCN(CC)CCNC(=O)c1cc(Br)c(N)cc1OC` to `CCN(CC)C(=O)[C@@]1(c2ccccc2)C[C@H]1CN.Cl`, the relative growth rises from 1.03 to 1.25.

Going from `C[C@@H]1CN([C@H](C)CO)S(=O)(=O)c2ccc(C#Cc3ccc(F)cc3)cc2O[C@@H]1CN(C)CC1CC1` to `C[C@H](CO)N1C[C@H](C)[C@@H](CN(C)S(=O)(=O)c2ccc(F)cc2)Oc2cc(C#Cc3ccncc3)ccc2S1(=O)=O`, the relative growth rises from 0.83 to 1.15.

Going from `C[C@@H]1CN([C@H](C)CO)S(=O)(=O)c2ccc(C#CCN(C)C)cc2O[C@@H]1CN(C)C(=O)CN(C)C` to `COc1ccc(-c2ccc3c(c2)O[C@H](CN(C)CC2CCOCC2)[C@@H](C)CN([C@@H](C)CO)S3(=O)=O)cc1`, the relative growth falls from 0.954 to 0.9.

Going from `CN1CCN(C(=O)C[C@@H]2CC[C@H](NC(=O)Cc3ccccn3)[C@H](CO)O2)CC1` to `CN(C)C(=O)C[C@@H]1CC[C@@H](NC(=O)C2CCOCC2)[C@H](CO)O1`, the relative growth rises from 0.957 to 1.04.

Compared with `O=C(CCC(=O)N1CCOCC1)Nc1c(F)c(F)nc(N2CCOCC2)c1F`, `COc1cccc(NC(=O)N2C[C@@H](O)COC[C@@H]3O[C@H](CC(=O)NCCCN4CCOCC4)CC[C@H]32)c1` is higher in relative growth: 1.02 for the first, 1.05 for the second.

Going from `NC[C@H](c1cccc(F)c1)N1CCCCC1` to `CC[N+](C)(CC)CCOC(=O)C(O)(c1ccccc1)C1CCCCC1.[Br-]` (centres undefined), the relative growth rises from 0.831 to 1.27.

First: CC1(C)O[C@@H]2[C@@H](CO[C@@]3(COS(N)(=O)=O)OC(C)(C)O[C@@H]23)O1
Second: CO[C@@]12[C@@H]3N[C@@H]3CN1C1=C(C(=O)C(N)=C(C)C1=O)[C@@H]2COC(N)=O
The relative growth of the first is higher: 1.09 for the first, 0.154 for the second.

Going from `CCCNC(=O)N1C[C@@H](O)COC[C@@H]2O[C@H](CC(=O)NCCCN3CCOCC3)CC[C@H]21` to `Cc1ccc(S(=O)(=O)N[C@@H]2CC[C@H](CCNC(=O)CN3CCOCC3)O[C@@H]2CO)cc1`, the relative growth rises from 0.942 to 1.09.

First: CNC(=O)CN(C#N)c1nc(N(C)C)nc(N(C)C)n1
Second: CCCNc1nc(=O)c(C)n[nH]1
The relative growth of the first is higher: 1.05 for the first, 0.972 for the second.

Compared with `OCC(CO)N[C@H]1C[C@](O)(CO)[C@@H](O)[C@H](O)[C@H]1O`, `OC[C@H]1O[C@H](n2cnc3cncnc32)[C@@H](O)[C@@H]1O` is lower in relative growth: 1.18 for the first, 0.728 for the second.

First: CC(=O)Nc1cccc(S(N)(=O)=O)c1
Second: CN(C)S(=O)(=O)c1ccc(CN)cc1
The relative growth of the first is lower: 0.912 for the first, 1.06 for the second.

Going from `C=C(/C=C\CNS(=O)(=O)c1ccc(C)cc1)[C@H](O)[C@H]1CCCN1S(=O)(=O)c1ccccc1[N+](=O)[O-]` to `C[C@@H]1CN([C@@H](C)CO)C(=O)c2cc(C#CC3(O)CCCC3)cnc2O[C@H]1CN(C)S(=O)(=O)c1ccccc1`, the relative growth rises from 0.906 to 0.997.

Going from `CN1CC(=O)N2[C@H](c3ccc4c(c3)OCO4)c3[nH]c4ccccc4c3C[C@@H]2C1=O` to `COCC(=O)Nc1ccc2c(c1)OC[C@H](C)N(C(=O)c1ccccc1F)C[C@@H](C)[C@@H](OC)CN(C)C2=O`, the relative growth falls from 1.31 to 0.967.

Compared with `Cn1cc(S(=O)(=O)N2CCN(c3ccc(F)cc3)CC2)c(=O)n(C)c1=O`, `COc1ccc(CCNS(=O)(=O)c2cn(C)c(=O)n(C)c2=O)cc1` is lower in relative growth: 1.13 for the first, 0.971 for the second.

Going from `O=C1O[C@H](c2ccccc2)[C@H](c2ccccc2)N2[C@H]1[C@@H](C(=O)N1CCCCCCC1)[C@]1(C(=O)Nc3ccc(C#CC4(O)CCCCCC4)cc31)[C@H]2c1ccc(O)cc1` to `C=CCOC(=O)[C@@H]1[C@H]2C(=O)O[C@H](c3ccccc3)[C@H](c3ccccc3)N2[C@H](c2ccc(OCCOC(=O)[C@H]3C[C@H]4C(=O)N[C@@H](CCCCNC(C)=O)C(=O)N4[C@H]3c3ccc(O)cc3)cc2)[C@@]12C(=O)Nc1ccc(I)cc12`, the relative growth rises from 0.874 to 1.09.

First: Cl.Cl.NCCNCCNCCN
Second: O=[N+]([O-])c1ccc(NCCNCCO)cc1
The relative growth of the first is higher: 1.08 for the first, 0.935 for the second.

First: CCS(=O)(=O)Nc1ccc2c(c1)CC(=O)N2
Second: O=C(C[C@@H]1C[C@@H]2c3cc(NS(=O)(=O)c4ccc(F)cc4)ccc3O[C@@H]2[C@@H](CO)O1)NCc1cccc(F)c1
The relative growth of the first is lower: 0.937 for the first, 0.978 for the second.

Going from `Cn1nnnc1SCC1=C(C(=O)[O-])N2C(=O)C(NC(=O)C(OC=O)c3ccccc3)C2SC1.[Na+]` (centres undefined) to `O=C([O-])C1=C(CSc2nnnn2CS(=O)(=O)[O-])CS[C@@H]2C(NC(=O)[C@H](O)c3ccccc3)C(=O)N12.[Na+].[Na+]` (some centres undefined), the relative growth rises from 0.899 to 1.04.

Going from `CCn1c(=S)ccc2ccccc21` to `Cc1cccc(-c2nc3ccccc3n2CCC(C)C)c1`, the relative growth falls from 1.11 to 0.807.

Going from `CC(C)OC(=O)[C@@H](C)Nc1n[nH]c(=O)[nH]c1=O` to `CCOCc1c[nH]c(=O)[nH]c1=O`, the relative growth falls from 0.971 to 0.93.

Compared with `O=C(N1CCN(CCO)CC1)C(F)(F)F`, `C[C@H](CO)N1C[C@H](C)[C@@H](CN(C)C(=O)Nc2cccc(Oc3ccccn3)c2)OCc2cn(nn2)CCCC1=O` is lower in relative growth: 1.05 for the first, 0.994 for the second.

First: O=C(C[C@H]1CC[C@@H]2[C@H](COC[C@@H](O)CN2C(=O)c2ccncc2)O1)NCc1ccc(-c2ccccc2)cc1
Second: O=C(Cc1ccncc1)Nc1ccc2c(c1)[C@H]1C[C@@H](CC(=O)N3CCc4ccccc4C3)O[C@H](CO)[C@H]1O2
The relative growth of the first is higher: 1.03 for the first, 0.954 for the second.

Going from `CSCC[C@H](NC(=O)[C@H](Cc1c[nH]c2ccccc12)NC(=O)CCNC(=O)OC(C)(C)C)C(=O)N[C@@H](CC(=O)O)C(=O)N[C@@H](Cc1ccccc1)C(N)=O` to `C=CC[C@H](CC(=O)N(CCO)Cc1ccccc1)C(=O)NCCOC(=O)[C@@H](CC=C)CC(=O)OC(C)(C)C`, the relative growth falls from 1.01 to 0.673.

Going from `CC(C)NNC(=O)c1ccncc1` to `COC(=O)c1ccc(Cn2cc(C(=O)NO)nn2)o1`, the relative growth rises from 0.905 to 1.22.

First: O=C1c2cccc(O)c2C(=O)c2c(O)cccc21
Second: COC(=O)/C(=C1\OC(=O)C(c2ccccc2)=C1O)c1ccccc1
The relative growth of the first is lower: 1.1 for the first, 1.13 for the second.

First: Clc1cccc(Cc2cn3cc(-c4ccccc4)nc3s2)c1
Second: Clc1ccc2nc(Cl)cc(-c3ccccc3)c2c1
The relative growth of the first is higher: 1.04 for the first, 1.03 for the second.

First: Nn1c([C@@H](O)c2ccccc2)n[nH]c1=S
Second: O=C(O)CCC(=O)c1ccc(-c2ccccc2)cc1
The relative growth of the first is higher: 0.952 for the first, 0.91 for the second.

Compared with `C[C@H](CO)N1C[C@H](C)[C@H](CN(C)C(=O)C2CCCCC2)Oc2ncc(C#CC3(O)CCCC3)cc2C1=O`, `O=C(N[C@@H]1CC[C@@H](CCn2cc(C3(O)CCCC3)nn2)O[C@H]1CO)C1CCOCC1` is higher in relative growth: 0.904 for the first, 1.02 for the second.

Going from `CCOC(N)=O` to `CCOC(=O)c1cc2c(=O)n(C)c(=O)n(C)c2[nH]c1=O`, the relative growth falls from 1.15 to 1.03.

`COc1ccc([Si](C)(C)[C@@H]2[C@@H](CCO)O[C@]3(C(=O)N(Cc4cccc(N5C(=O)COc6ccccc65)c4)c4ccccc43)[C@H]2C)cc1` and `COc1ccc([C@@H]([C@H](Cc2ccccc2)OC(C)=O)N2C[C@@H](OC(C)=O)[C@H]3C(=NO[C@@H]3c3ccccc3)[C@@H]2Cc2ccccc2)cc1` are the same in relative growth: 1.28 for the first, 1.28 for the second.

Compared with `CCNC(=O)C[C@H]1C=C[C@H](NC(=O)C2CCOCC2)[C@@H](CO)O1`, `COc1cccc(CNC(=O)C[C@H]2C=C[C@H](NC(=O)C3CCOCC3)[C@H](CO)O2)c1` is higher in relative growth: 0.939 for the first, 1.06 for the second.

Going from `O=C(O)CC[C@H](NC(=O)CCn1nnc2ccccc2c1=O)C(=O)O` to `N[C@@H](Cc1ccc(O)c(O)c1)C(=O)O`, the relative growth falls from 1.02 to 0.907.

First: C[C@@H]1COCS(=O)(=O)N1
Second: O=c1nc[nH]c2c1ncn2[C@@H]1C[C@@H](O)[C@H](CO)O1
The relative growth of the first is higher: 1.21 for the first, 0.948 for the second.

Going from `C(=N\c1nc2ccccc2[nH]1)/N(c1ccccc1)c1ccccc1` to `CN(C)c1nc2c([nH]1)c(=O)[nH]c(=O)n2C`, the relative growth falls from 1.17 to 0.944.

Source: published antibiotic growth screens (doi:10.1038/s41589-023-01349-8)
